Test results taken from patent US20050026219A1, “Process for label-free measurement of modified substrate” (Boehringer Ingelheim Pharma GmbH & Co. KG, priority 2001, published 2005).
“And” between values parts separate entries of the source, which are not always exact repeats. Identical values can stand only once.

Assay: Layer thickness formation (binding) on the phospho-tyrosine-diamino-PEG 2000 sensor surface, RIfS
Conditions: for Optical layer thickness (binding): EGF-RK buffer
Procedure: A conventional aminodextrane (AMD) sensor or a diamino PEG 2000 sensor is used (e.g. Schütz A., 2000; a) Piehler J., et al., 1996; Universität Tübingen, Inst. f. Physikalische and Theoretische Chemie, Germany.)
20 μl aliquots of the final solution are immediately added drop by drop to the sensor surface which is about 1 cm^2 in size, and incubated for 8 hours under DMF chamber saturation. Then the sensor is rinsed with DMF and dried in the air.
The EGF-RK buffer is used unless otherwise stated.
The buffer used is EGF-RK buffer.
The buffer used is EGF-RK buffer. As a control, buffer solution without the enzyme EGF-RK is measured.
The buffer used is EGF-RK buffer. As a control, buffer solution without EGF-RK is measured.
First, the antibody, then the kinase and the substrate are measured on their own in order to be able to evaluate any non-specific binding.

EGF-RK: EGF-RK isolated from human A 431 carcinoma cells (Messrs. Sigma)
Optical layer thickness (binding) (1 Unit/50 μl + 0.01% Brij 35 (v/v)): 0.000 nm
Optical layer thickness (binding) (1 Unit/50 μl, no Brij 35): 0.829 nm and 0.627 nm
Optical layer thickness (binding) (2 Units/50 μl + 0.01% Brij 35 (v/v)): 0.000 nm
Optical layer thickness (binding) (2 Units/50 μl, no Brij 35): 1.744 nm and 1.941 nm
Optical layer thickness (binding) (3 Units/50 μl): 2.134 nm
Optical layer thickness (binding) (4 Units/50 μl): 1.358 nm
Optical layer thickness (binding) (5 Units/50 μl): 1.144 nm
Optical layer thickness, component on its own (Table 8: EGF-RK buffer with Brij 35, substrate 10 μg/50 μl, EGF-RK 0.1 Unit/50 μl, EGF 0.5 μg/50 μl): 0 nm
Optical layer thickness, component on its own (Table 9: EGF-RK buffer with Brij 35, substrate 10 μg/50 μl, EGF-RK 2 Units/50 μl): 0.183 nm
Optical layer thickness, component on its own (Table 12: EGF-RK buffer with Brij 35, Raytide EL 2 μg/50 μl, EGF-RK 0.5 Units/50 μl): 0.043 nm
